Data published in US6506876B1, “LTA4 hydrolase inhibitor pharmaceutical compositions and methods of use” (G.D. Searle & Co., priority 1994, dated 2003).
Marks after values point to notes of the source that are not given here.

Amino acid sequences for entries named in this document (tags omitted).
UniProt P09960, whole entry, looked up: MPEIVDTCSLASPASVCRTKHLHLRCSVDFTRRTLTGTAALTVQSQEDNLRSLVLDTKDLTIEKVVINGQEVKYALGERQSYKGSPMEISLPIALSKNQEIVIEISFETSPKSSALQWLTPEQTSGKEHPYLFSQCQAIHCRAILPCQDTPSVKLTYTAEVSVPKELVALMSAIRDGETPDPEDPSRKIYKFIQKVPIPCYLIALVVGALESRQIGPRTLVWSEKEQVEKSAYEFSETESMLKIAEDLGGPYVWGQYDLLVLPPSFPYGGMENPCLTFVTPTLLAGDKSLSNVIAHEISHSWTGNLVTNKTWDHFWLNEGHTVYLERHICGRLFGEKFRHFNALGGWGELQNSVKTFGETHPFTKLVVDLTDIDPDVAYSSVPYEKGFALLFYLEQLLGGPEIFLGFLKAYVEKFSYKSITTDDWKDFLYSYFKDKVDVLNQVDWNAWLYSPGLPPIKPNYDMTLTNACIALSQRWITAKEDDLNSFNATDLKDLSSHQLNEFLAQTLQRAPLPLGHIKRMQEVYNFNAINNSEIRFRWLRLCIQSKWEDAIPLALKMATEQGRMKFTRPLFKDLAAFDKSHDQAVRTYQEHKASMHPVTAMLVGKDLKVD

Key:
[1] = system: LTB4 production in mouse blood (LTA4 hydrolase); assay: Ex vivo LTB4 production by calcium ionophore stimulated mouse blood after oral dosing; type: in vivo; details: oral gavage
[2] = target: LTB4 production in human whole blood (LTA4 hydrolase) (Homo sapiens, UniProt P09960); assay: LTB4 production by calcium ionophore stimulated human blood; type: cell-based; details: read-out: Inhibition of Calcium Ionophore-Induced LTB4 Production in Human Blood IC50 HWB, A23187

Nc1ccc2c(c1)ncn2CCOc1ccc(Cc2ccccc2)cc1
Murine Ex Vivo LTB4 Inhibition % I LTB4 ([1]; 1 hour after administration of 10 mg/kg, tested form: 0.25 H2O): 28%

c1ccc(Cc2ccc(OCCn3cnc4ncccc43)cc2)cc1
Murine Ex Vivo LTB4 Inhibition % I LTB4 ([1]; 1 hour after administration of 50 mg/kg (*)): 92%*

Cn1c(=O)c2ncn(CCOc3ccc(Cc4ccccc4)cc3)c2n(C)c1=O
IC50 [2]: 260 nM
Murine Ex Vivo LTB4 Inhibition % I LTB4 ([1]; 1 hour after administration of 10 mg/kg): 0%
